Data taken from paper PMC4844702, “Selective inhibition of the kinase DYRK1A by targeting its folding process” (Nature Communications, 2016).
pIC50: −log10 of the molar value.

Assays:
[1] = target: human DYRK1A kinase domain (Homo sapiens, UniProt Q13627); assay: RI-in vitro kinase assay with DYRKtide; type: biochemical; conditions: read-out: IC50, kinase activity of recombinant DYRK1A; DYRKtide substrate; Supplementary Fig. 13d, n=3
[2] = target: DYRK1A (Homo sapiens, UniProt Q13627); assay: SPHINKS assay: TAU (Thr212) phosphorylation by induced DYRK1A in HEK293 cells, western blot; type: cell-based; conditions: 10 μM, compound added after accumulation of mature DYRK1A
[3] = target: FLAG-DYRK1A (Homo sapiens, UniProt Q13627); assay: 2A peptide bicistronic FLAG-DYRK1A/HA-EGFP expression in HEK293 cells, western blot; type: cell-based; conditions: added with doxycycline, 5 h

For `C[Si](C)(C)C#Cc1cc(/C=C2\SC(=S)NC2=O)ccc1O`, the pIC50 [1] was 5.96, the “TAU phosphorylation in Tc 2” value [2] was “inhibited” and the “amount of FLAG-DYRK1A (destabilization)” value [3] was “did not destabilize”.
